# Assay results from paper PMC7321161, “The Intriguing Effects of Substituents in the N-Phenethyl Moiety of Norhydromorphone: A Bifunctional Opioid from a Set of “Tail Wags Dog” Experiments” (Molecules, 2020).
# Protein sequences, listed by entry. Tags and fused reporters are not part of them. Lines headed by an entry give the natural chain unless they say otherwise; changes in a name come on top.
# UniProt P41145: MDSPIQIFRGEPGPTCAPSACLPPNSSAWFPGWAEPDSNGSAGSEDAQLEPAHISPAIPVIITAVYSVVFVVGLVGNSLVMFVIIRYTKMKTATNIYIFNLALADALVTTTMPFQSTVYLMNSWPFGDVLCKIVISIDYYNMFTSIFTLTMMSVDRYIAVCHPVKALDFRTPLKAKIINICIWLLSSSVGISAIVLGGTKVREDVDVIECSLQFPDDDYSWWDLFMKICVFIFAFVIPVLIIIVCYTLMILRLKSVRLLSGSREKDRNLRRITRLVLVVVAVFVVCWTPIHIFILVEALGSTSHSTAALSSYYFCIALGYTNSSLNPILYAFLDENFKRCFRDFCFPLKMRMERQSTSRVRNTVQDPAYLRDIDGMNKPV
# Molecular target: human κ-opioid receptor (OPRK1) (Homo sapiens, UniProt P41145)
# Test: Forskolin-induced cAMP accumulation assay, HitHunter CHO-K1 κ receptor
# Type: cell-based
substance,measurement,setting,value
"(+)-(5α,7α,8β)-N-methyl-N-[7-(1-pyrrolidinyl)-1-oxaspiro[4.5]dec-8-yl]-benzeneacetamide",KOR cAMP % Efficacy,normalized to vehicle and forskolin control,101.2 ± 1.4%
same,EC50,"read-out: KOR cAMP Agonist Potency ± SEM, inhibition of forskolin-induced cAMP accumulation",0.7 nM
